In this assay the target is T1, recombinant human Myt1 (Homo sapiens, UniProt Q99640).
T1 construct: full length PKMYT1 recombinant human protein expressed in insect cells
T1 sequence (Q99640 1-499): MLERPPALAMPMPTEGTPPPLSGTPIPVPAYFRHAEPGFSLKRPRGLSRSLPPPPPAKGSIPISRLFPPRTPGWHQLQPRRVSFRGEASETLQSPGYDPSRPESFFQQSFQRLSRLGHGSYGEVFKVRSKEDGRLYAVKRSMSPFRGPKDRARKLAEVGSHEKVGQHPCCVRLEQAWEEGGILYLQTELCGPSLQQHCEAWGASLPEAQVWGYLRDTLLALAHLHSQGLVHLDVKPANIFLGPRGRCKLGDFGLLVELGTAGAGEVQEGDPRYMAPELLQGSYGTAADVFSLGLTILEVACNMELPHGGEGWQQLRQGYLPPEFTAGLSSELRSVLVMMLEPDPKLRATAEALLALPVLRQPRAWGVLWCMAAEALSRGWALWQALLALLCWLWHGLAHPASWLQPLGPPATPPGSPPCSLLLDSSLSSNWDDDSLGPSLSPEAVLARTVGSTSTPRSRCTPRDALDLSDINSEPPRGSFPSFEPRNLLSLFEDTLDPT
Nature of the assay: Myt1 enzymatic assay (ADP-Glo kinase assay, IC50 and % max inhibition). It counts as biochemical. For orientation: ADP-Glo first removes unused ATP, then detects ADP through luciferase.

Broadly, the IC50 is the point on the concentration scale where inhibition reaches its midpoint.

Molecules are shown by their SMILES. Where a name gives a salt, the structure may show the parent alone. Read-outs that look alike come from different tables or passages of the source.

For `Cc1ccc(O)cc1-n1c(N)c(C(N)=O)c2nc(-c3ncccn3)ccc21` [Compound 23, 2-amino-1-(5-hydroxy-2-methyl-phenyl)-5-pyrimidin-2-yl-pyrrolo[3,2-b]pyridine-3-carboxamide], under “recombinant human Myt1 18 nM, ATP 10 μM, ADP-Glo, read-out: Myt1 IC50”, the 50% inhibitory concentration (IC50) came out at 2.47 µM.
On to `Cc1ccc(O)cc1-n1c(N)c(C(N)=O)c2nc(C3=CCCNC3)ccc21` [Compound 27, 2-amino-1-(5-hydroxy-2-methyl-phenyl)-5-(1,2,3,6-tetrahydropyridin-5-yl)pyrrolo[3,2-b]pyridine-3-carboxamide HCl salt], for which the IC50 turned out to be 0.604 µM.

Source of the values: patent publication US20230151014A1 (Repare Therapeutics Inc., priority 2020, published 2023).
